From PMC8914530 (Data in Brief, 2022)

The chains behind the UniProt entries cited, without tags or fusion partners. Where a name states a change or a piece, a line headed by the entry shows the natural chain unless it says otherwise.
UniProt P20813: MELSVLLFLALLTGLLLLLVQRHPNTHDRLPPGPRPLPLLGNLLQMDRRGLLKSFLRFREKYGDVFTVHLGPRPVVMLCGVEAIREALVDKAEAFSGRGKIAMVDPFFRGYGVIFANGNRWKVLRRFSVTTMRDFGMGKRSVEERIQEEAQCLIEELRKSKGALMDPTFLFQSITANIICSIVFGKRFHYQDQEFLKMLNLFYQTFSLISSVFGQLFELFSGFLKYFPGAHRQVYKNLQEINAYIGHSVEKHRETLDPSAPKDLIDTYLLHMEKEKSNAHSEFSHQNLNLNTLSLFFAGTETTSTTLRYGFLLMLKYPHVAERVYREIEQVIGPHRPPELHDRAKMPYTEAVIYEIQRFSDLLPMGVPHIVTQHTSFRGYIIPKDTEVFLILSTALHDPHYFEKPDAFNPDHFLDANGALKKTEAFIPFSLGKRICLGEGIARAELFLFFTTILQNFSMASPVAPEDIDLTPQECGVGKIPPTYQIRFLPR

Target: CYP2B6 (Homo sapiens, UniProt P20813)
Experiment: CYP2B6 Vivid CYP450 Blue fluorescent inhibition assay
Assay type: biochemical
Details: variable slope sigmoidal fit, GraphPad Prism 7.0

CYP2B6 Hillslope: −1.74
Substance: (+)-α-Pinene
